Here are results for 1 molecule from ChEMBL document CHEMBL1145061, “New potential uroselective NO-donor alpha1-antagonists” (J Med Chem, 2003).

Amino acid sequences for entries named in this document (tags omitted).
UniProt P08908, whole entry: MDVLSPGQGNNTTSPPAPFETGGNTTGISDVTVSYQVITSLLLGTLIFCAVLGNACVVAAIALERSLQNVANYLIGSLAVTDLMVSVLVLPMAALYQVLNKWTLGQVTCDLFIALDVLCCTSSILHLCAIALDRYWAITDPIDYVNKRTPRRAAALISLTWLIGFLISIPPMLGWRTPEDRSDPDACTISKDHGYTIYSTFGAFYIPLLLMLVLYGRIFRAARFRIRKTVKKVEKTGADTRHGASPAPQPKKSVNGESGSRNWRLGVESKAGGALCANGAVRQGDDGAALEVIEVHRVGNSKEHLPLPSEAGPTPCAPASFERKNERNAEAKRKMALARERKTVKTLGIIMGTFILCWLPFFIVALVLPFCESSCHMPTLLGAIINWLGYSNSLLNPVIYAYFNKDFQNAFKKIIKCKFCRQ

Test [1] addresses 5-hydroxytryptamine receptor 1A (Homo sapiens, UniProt P08908). Kind of test: Inhibition of [3H]8-OH-DPAT binding to 5-hydroxytryptamine 1A receptor serotonergic receptor in human HeLa cells. In kind it is cell-based. The essentials:
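Membranes from HeLa cells expressing the cloned human 5-HT1A receptor, [3H]-8-OH-DPAT competition binding. Ki from two to three triplicate experiments, agreeing within 20%.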

The target in test [2] is T1, Alpha-1A adrenergic receptor (Homo sapiens, UniProt P35348).
T1 sequence (P35348 whole entry): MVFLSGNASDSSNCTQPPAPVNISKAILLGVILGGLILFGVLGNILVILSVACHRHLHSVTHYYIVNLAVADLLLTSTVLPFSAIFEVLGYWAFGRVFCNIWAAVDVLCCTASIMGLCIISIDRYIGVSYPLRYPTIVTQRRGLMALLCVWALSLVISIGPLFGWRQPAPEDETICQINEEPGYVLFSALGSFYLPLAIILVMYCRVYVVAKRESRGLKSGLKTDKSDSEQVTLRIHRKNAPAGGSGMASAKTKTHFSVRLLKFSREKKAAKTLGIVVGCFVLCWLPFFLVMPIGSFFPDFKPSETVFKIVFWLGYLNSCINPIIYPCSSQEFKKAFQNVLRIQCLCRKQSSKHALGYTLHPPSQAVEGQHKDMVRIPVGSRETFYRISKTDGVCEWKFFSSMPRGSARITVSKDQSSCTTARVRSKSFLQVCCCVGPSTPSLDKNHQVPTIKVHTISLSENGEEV
Kind of test: Inhibition of [3H]prazosin binding to cloned human Alpha-1A adrenergic receptor in CHO cells (chinese hamster ovary cells). In kind it is cell-based. The essentials: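 Membranes from CHO cells expressing cloned human α1a, α1b or α1d subtypes, [3H]prazosin competition binding. Ki from two to three experiments, each in triplicate, agreeing within 20%.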

Structures are written as SMILES.

As a reminder, the Ki is a measure of affinity in units of concentration, obtained from inhibition or displacement. High values mean a looser hold on the target, low ones a stronger hold on the target. In the case of `COc1ccccc1N1CCN(CCCNC(=O)c2cccc3c(=O)c(C)c(-c4ccccc4)oc23)CC1` [UPIDOSIN], the Ki in test [1] came out at 5.9 nM; in test [2], 0.34 nM.
